Measurements published in patent publication US12139488B2, “Pyrido[3,2-d]pyrimidine compounds uses thereof for treating a proliferative disease” (Universite de Montreal, priority 2021, dated 2024).
pIC50: −log10 of the molar value. Where two headings read alike, the source gives them in different places.

Amino acid sequences for entries named in this document (tags omitted).
UniProt P15056, whole entry: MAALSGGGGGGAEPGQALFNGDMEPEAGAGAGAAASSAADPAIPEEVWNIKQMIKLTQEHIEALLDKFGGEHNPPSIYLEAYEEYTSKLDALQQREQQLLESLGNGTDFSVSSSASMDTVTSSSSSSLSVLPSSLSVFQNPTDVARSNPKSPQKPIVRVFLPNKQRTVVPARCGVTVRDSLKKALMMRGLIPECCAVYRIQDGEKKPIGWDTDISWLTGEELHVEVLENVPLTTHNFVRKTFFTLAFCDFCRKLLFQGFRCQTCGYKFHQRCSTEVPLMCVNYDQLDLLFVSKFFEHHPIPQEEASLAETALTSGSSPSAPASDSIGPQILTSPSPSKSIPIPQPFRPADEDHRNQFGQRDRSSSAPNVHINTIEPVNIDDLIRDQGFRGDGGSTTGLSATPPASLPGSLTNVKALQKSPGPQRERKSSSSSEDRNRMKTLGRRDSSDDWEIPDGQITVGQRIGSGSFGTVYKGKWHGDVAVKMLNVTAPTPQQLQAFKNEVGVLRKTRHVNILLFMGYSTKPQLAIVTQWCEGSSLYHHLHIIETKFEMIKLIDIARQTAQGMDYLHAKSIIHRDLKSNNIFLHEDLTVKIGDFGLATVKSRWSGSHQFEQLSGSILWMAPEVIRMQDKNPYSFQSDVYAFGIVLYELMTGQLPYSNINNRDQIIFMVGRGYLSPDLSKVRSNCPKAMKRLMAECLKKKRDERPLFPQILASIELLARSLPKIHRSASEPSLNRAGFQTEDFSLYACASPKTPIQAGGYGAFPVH
UniProt P04049, whole entry: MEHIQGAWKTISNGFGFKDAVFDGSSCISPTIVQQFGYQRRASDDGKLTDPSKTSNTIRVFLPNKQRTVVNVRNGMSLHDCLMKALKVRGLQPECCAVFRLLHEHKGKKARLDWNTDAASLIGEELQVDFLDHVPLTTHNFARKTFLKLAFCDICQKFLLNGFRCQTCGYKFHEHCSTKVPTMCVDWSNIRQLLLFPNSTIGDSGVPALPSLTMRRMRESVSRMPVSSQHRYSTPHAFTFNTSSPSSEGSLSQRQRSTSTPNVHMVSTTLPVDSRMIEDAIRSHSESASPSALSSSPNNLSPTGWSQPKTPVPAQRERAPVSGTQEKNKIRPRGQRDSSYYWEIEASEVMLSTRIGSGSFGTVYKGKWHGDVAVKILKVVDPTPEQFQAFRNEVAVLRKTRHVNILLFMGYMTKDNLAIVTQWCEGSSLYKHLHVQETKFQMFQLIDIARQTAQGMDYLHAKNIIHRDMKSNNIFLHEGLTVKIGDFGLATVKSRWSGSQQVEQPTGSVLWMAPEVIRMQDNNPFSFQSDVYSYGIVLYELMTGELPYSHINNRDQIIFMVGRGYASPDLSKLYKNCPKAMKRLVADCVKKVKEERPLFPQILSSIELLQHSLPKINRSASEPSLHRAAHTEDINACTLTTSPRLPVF
UniProt P10398, whole entry: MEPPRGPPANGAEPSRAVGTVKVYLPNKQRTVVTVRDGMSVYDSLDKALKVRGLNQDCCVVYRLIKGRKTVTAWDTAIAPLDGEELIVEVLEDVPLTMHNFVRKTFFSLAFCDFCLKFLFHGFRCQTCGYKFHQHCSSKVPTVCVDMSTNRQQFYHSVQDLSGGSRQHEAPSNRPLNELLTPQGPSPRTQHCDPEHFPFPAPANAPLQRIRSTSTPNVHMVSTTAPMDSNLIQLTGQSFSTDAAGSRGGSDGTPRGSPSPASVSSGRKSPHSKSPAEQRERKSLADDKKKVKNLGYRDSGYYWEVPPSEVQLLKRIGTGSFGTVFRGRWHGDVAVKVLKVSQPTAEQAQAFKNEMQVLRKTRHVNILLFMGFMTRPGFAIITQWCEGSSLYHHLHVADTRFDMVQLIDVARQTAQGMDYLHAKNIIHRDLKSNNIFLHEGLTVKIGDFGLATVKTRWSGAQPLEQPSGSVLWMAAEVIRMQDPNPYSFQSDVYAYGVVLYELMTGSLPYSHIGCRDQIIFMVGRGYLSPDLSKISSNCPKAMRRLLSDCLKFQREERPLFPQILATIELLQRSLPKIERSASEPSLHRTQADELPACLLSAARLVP

What was measured:
BRAF = BRAF (Homo sapiens (Human), UniProt P15056); assay: BRAF kinase activity assay (ADP-Glo)
CRAF = CRAF (Homo sapiens, UniProt P04049); assay: CRAF kinase activity assay (ADP-Glo)
ARAF = ARAF (Homo sapiens (Human), UniProt P10398); assay: ARAF kinase activity assay (AlphaLISA p-MEK 1/2 detection); conditions: read-out: Kinase IC50 (nM) ARAF
Protocol: Compound preparation: solid samples of each substances in 1 dram vials were suspended in DMSO (Fisher Scientific) at a stock concentration of 20 mM. Stocks were kept at −20° C. and protected from light. If solubility of the compound at 20 mM appeared to be an issue, the initial concentration of the DMSO stock was changed to 10 mM or 5 mM.
In vitro enzymatic reactions were used for evaluating compounds intrinsic activity against BRAF, CRAF and ARAF. For BRAF and CRAF, 0.375 nM of purified GST-tagged kinases (cat #B4062-10 UG and cat #R1656-10 UG respectively from Millipore Sigma) were incubated with 75 nM of kinase-dead MEK1 substrate (cat #40075; BPS Bioscience) in the presence of 10 μM of Ultrapure ATP (cat #V9102; Promega; part V915A) with and without the test compound in a buffer containing 50 mM HEPES pH 7.5, 10 mM MgCl2, 1 mM EDTA, 0.01% Brij-35 and 2 mM DTT. Separate reactions were performed with the MEK1 substrate and ATP as a blank control. ARAF, kinase reactions were rigorously the same with the exception that kinase concentration was raised to 3.75 nM (cat #1768-0000-1; Reaction Biology).
For compound treatment, 5 μL/well of test substance solution are placed in a 384-well proxyplate (Perkin Elmer) and mixed with 2× concentrated kinase reactions. The dilution series is selected so that nine concentrations cover a range from 100 nM to 0.01 nM. […] The final concentration of DMSO in the assay is set at 0.05%.
ARAF kinase reactions were carried out for a total of 2 hours at 30° C. and then stopped by addition of EDTA at a final concentration of 40 mM. Reactions were then detected using the AlphaLISA® SureFire® Ultra™ p-MEK 1/2 (Ser218/222) (PerkinElmer) kit. Reactions were performed with 5 μL of kinase reaction according to the manufacturer's specifications in 384-well proxyplates (Perkin Elmer) followed by overnight incubation of the AlphaLISA® reactions at room temperature in a humidified chamber. After completion of the detection reactions, the signals were recorded on a Synergy Neo2 plate reader (Biotek) equipped with AlphaLISA® filters. The effect of each compound dilution on the pMEK signal generated by ARAF reactions was expressed in % inhibition and calculated as follows. An internal 100% inhibition control (average of luminescence in kinase reactions comprising kinase dead MEK1 substrate alone) was included in each plate to measure of pMEK background and was subtracted from each data point. The average of DMSO (vehicle) controls (set as 0% inhibition) was also established and used to calculate % inhibition: % inhibition=100*(1−((pMEK signalcompound)/(pMEK signalDMSO)))
IC50 values were obtained by plotting the kinase inhibition values and fitting the dose-activity curves using a log(agonist) versus response-variable slope (four parameters) function using either GraphPadPrism (V7.0) or Dotmatics Screening Ultra platform. Standards included in the ARAF kinase assay were Belvarafenib (MedChem Express cat #HY-109080; CAS #1446113-23-0), LXH254 (MedChem Express cat #HY-112089; CAS #1800398-38-2) and BGB283 (cat #HY-18957; CAS #1446090-79-4).

[1] = system: pERK in HCT-116 cells (KRAS G13D); assay: Phospho-ERK inhibition (AlphaLISA SureFire Ultra p-ERK 1/2), HCT116; conditions: for HCT116 pERK % Ymin (lowest value of the IC50 curve): Ymin above −20% = minimal or no paradoxical activation; for pIC50: read-out: HCT116 pERK IC50
Summary of the method: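 Cells plated in RPMI-1640 with 5% FBS, kept overnight at 37° C, then treated 1 h with ten-point dilutions (top usually 10 μM; 0.5% DMSO). Lysate p-ERK1/2 (Thr202/Tyr204) read by AlphaLISA SureFire Ultra. % inhibition set against DMSO after subtracting the trametinib background; IC50 from four-parameter fit.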

[2] = read-out: Kinase IC50 (nM), BRAF biochemical kinase assay, BRAF
[3] = read-out: Kinase IC50 (nM), CRAF biochemical kinase assay, CRAF
[4] = read-out: Kinase IC50 (nM) CRAF

Row | IC50 (BRAF; [2]) [nM] | IC50 (CRAF; [3]) [nM] | IC50 (ARAF) [nM] | HCT116 pERK % Ymin (lowest value of the IC50 curve) ([1]; HCT116 cells) [%] | pIC50 ([1]; HCT116 cells) | IC50 (BRAF; read-out: Kinase IC50 (nM) BRAF) [nM] | IC50 (CRAF; [4]) [nM] | pIC50 ([1]; HCT116 cells, class symbol before the bracket) | IC50 ([1]; read-out: HCT116 pERK IC50 in μM, HCT116 cells, 1 h treatment) [µM] | pIC50 ([1]; HCT116 cells, class symbol) | SMILES | HCT116 pERK Ymin % ([1]; HCT116 cells, Ymin in brackets) [%] | HCT116 pERK Ymin % ([1]; lowest % inhibition value of the IC50 curve, HCT116) [%]
1 | < 1 | < 10 | 1 to 10 | −3 | > 6.30 |  |  |  |  |  | O=S(=O)(Nc1ccc(F)c(Nc2ncnc3ccc(-n4cnc5c(N6CCC[C@H](O)C6)cccc54)nc23)c1F)c1cccc(Cl)c1Cl |  | 
2 | 1 to 10 | 10 to 50 | 1 to 10 | 4 | > 6.30 |  |  |  |  |  | O=S(=O)(Nc1ccc(F)c(Nc2ncnc3ccc(-n4cnc5c(N6CCN(CCO)CC6)cccc54)nc23)c1F)c1cccc(Cl)c1Cl [621] |  | 
3 |  |  | 1 to 10 |  |  | < 1 | 10 to 50 | > 6.30 |  |  | Cc1c(F)cccc1S(=O)(=O)Nc1ccc(F)c(Nc2ncnc3ccc(-n4nc(C(=O)N5CCC(C)(O)CC5)c5ccccc54)nc23)c1F | −4.3 | 
4 |  |  | 1 to 10 |  |  |  | < 10 |  | < 0.5 |  | COc1ccc(S(=O)(=O)Nc2ccc(F)c(Nc3ncnc4ccc(-n5cnc6ccccc65)nc34)c2F)c(C)c1F |  | 3
5 | 1 to 10 | 10 to 50 | 1 to 10 | −14 | > 6.30 |  |  |  |  |  | COC1CCN(c2cccc3c2ncn3-c2ccc3ncnc(Nc4c(F)ccc(NS(=O)(=O)c5cccc(Cl)c5Cl)c4F)c3n2)CC1 |  | 
6 |  |  | 1 to 10 |  |  |  |  |  |  | > 6.30 | COc1ccc(S(=O)(=O)Nc2ccc(F)c(Nc3ncnc4ccc(-n5cnc6c(N)cccc65)nc34)c2F)cc1 |  | 
